Assay results taken from patent US7893077B2, “Bisaryl-sulfonamides” (Amgen Inc., priority 2004, dated 2011).

Sequences of proteins named here, by UniProt entry; tags and fusion partners are left off.
UniProt P37231, whole entry: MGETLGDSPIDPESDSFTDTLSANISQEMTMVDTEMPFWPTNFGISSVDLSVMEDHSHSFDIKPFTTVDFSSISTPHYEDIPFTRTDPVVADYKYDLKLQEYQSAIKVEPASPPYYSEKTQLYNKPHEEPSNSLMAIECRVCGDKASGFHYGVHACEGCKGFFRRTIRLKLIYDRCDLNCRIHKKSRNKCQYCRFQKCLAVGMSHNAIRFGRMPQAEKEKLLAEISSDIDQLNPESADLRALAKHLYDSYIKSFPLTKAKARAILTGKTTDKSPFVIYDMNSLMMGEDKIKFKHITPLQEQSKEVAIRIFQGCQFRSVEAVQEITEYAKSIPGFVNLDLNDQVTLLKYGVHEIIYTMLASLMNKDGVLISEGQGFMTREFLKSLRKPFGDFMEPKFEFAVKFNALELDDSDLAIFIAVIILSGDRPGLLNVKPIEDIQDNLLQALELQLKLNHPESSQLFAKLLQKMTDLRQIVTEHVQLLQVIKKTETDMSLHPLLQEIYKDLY

Target: PPARγ (Homo sapiens, UniProt P37231)
Assay: PPARγ ligand binding assay utilizing [3H]-BRL 49653 as the radioligand (filtration)
Settings: read-out: PPARγ Binding IC50 Filtration; concentration required to reduce by 50% the specific binding of [3H]-BRL 49653
Procedure, shortened: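 Displacement of 10 nM [3H]-BRL 49653 from PPARγ-GST fusion protein in Tris-HCl pH 8.0 buffer with KCl, DTT, BSA and NP-40, 15 min incubation, then glutathione-bead capture for 1 h. Bound radioactivity counted after filtration washes; IC50 is concentration giving 50% loss of specific binding, reported in ranges.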

| SMILES | IC50 |
| --- | --- |
| Cc1nc(-c2cc(NS(=O)(=O)c3ccc(Cl)cc3Cl)ccc2Oc2ccc(S(=O)(=O)N3CCOCC3)cc2)cs1 | < 1 µM |
| CC(=O)c1cc(NS(=O)(=O)c2cccc(OC(F)(F)F)c2)cc(Cl)c1Oc1ccc(S(=O)(=O)N2CCOCC2)cc1 | < 10 µM |
| CC(C)C(=O)c1cc(NS(=O)(=O)c2ccc(Cl)cc2Cl)ccc1Oc1ccc(S(=O)(=O)N2CCCCC2)cc1 | < 1 µM |
| CC(=O)c1cc(NS(=O)(=O)c2cc(C)c(Cl)cc2Cl)cc(Cl)c1Oc1ccc(S(=O)(=O)N2CCCC2)c(C)c1 | < 1 µM |
| CC(=O)c1cc(NS(=O)(=O)c2ccc(S(C)(=O)=O)cc2)cc(Cl)c1Oc1ccc(S(=O)(=O)N2CCOCC2)cc1 | < 30 µM |
| CCCN(CC)S(=O)(=O)c1ccc(Oc2c(Cl)cc(NS(=O)(=O)c3ccc(C(F)(F)F)cc3Cl)cc2Cl)cc1 | < 1 µM |
| Cc1cc(NS(=O)(=O)c2ccc(C(F)(F)F)cc2Cl)cc(C(=O)NC(C)C)c1Oc1ccc(S(=O)(=O)N2CCOCC2)cc1 | < 1 µM |
| Cc1cc(NS(=O)(=O)c2ccc(C(F)(F)F)cc2Cl)nnc1Sc1ccc(S(=O)(=O)N2CCOCC2)cc1 | < 10 µM |
| COc1ccc(OC)c(S(=O)(=O)Nc2cc(Cl)c(Oc3ccc(S(=O)(=O)N4CCOCC4)cc3)c(C(C)=O)c2)c1 | < 10 µM |
| Cc1cc(S(=O)(=O)Nc2ccc(Oc3ccc(S(=O)(=O)N4CCCCC4)cc3)c(C(=O)N3CCCC3)c2)c(Cl)cc1Cl | < 1 µM |
| CCc1cc(S(=O)(=O)N2CCOCC2)ccc1Oc1c(Cl)cc(NS(=O)(=O)c2ccc(Cl)cc2Cl)cc1Cl | < 1 µM |
| CCN(CC)S(=O)(=O)c1ccc(Sc2c(Cl)cc(NS(=O)(=O)c3ccc(C(F)(F)F)cc3Cl)cc2Cl)cc1 | < 1 µM |
| O=S(=O)(Nc1ccc(Oc2ccc(S(=O)(=O)N3CCOCC3)cc2)cc1)c1cc(Cl)c(Cl)cc1Cl | < 1 µM |
| CN(C)C(=O)c1cc(NS(=O)(=O)c2ccc(C(F)(F)F)cc2Cl)cc(Cl)c1Oc1ccc(S(=O)(=O)N2CCOCC2)cc1 | < 10 µM |
| CCNS(=O)(=O)c1ccc(Oc2c(Cl)cc(NS(=O)(=O)c3ccc(C(F)(F)F)cc3Cl)cc2Cl)cc1 | < 1 µM |
| CCOC(=O)c1cc(NS(=O)(=O)c2ccc(C(F)(F)F)cc2Cl)ccc1Oc1ccc(S(=O)(=O)N2CCOCC2)c(C)c1 | < 30 µM |
| COc1ccc(S(=O)(=O)Nc2cc(Cl)c(Oc3ccc(S(=O)(=O)N4CCOCC4)cc3)c(C(C)=O)c2)cc1F | < 1 µM |
| CC(=O)c1cc(NS(=O)(=O)c2ccc(F)cc2C(F)(F)F)cc(Cl)c1Oc1ccc(S(=O)(=O)N2CCOCC2)cc1 | < 10 µM |
| CC(C)N(C)C(=O)c1cc(NS(=O)(=O)c2ccc(Cl)cc2Cl)ccc1Oc1ccc(S(=O)(=O)N2CCCCC2)cc1 | < 1 µM |
| CCNC(=O)c1cc(NS(=O)(=O)c2cc(F)c(Cl)cc2F)ccc1Oc1ccc(S(=O)(=O)N2CCCC2)c(C)c1 | < 10 µM |
| C/C=C/C(=O)c1cc(NS(=O)(=O)c2ccc(Cl)cc2Cl)ccc1Oc1ccc(S(=O)(=O)N2CCCCC2)c(C)c1 | < 1 µM |
| Cc1cc(NS(=O)(=O)c2ccc(C(F)(F)F)cc2Cl)cc(C(C)O)c1Oc1ccc(S(=O)(=O)N2CCCCC2)cc1 (centres unmarked) | < 1 µM |
| CC(C)NC(=O)c1cc(NS(=O)(=O)c2ccc(Cl)cc2Cl)ccc1Oc1ccc(S(=O)(=O)N2CCCCC2)cc1 | < 1 µM |
